# From US20190233442A1, “SELECTIVE ESTROGEN RECEPTOR DOWN-REGULATORS (SERDS)” (Xavier University of Louisiana, priority 2016, published 2019)
# By UniProt entry, the sequences of proteins in these tests, tags left out.
# UniProt P03372, whole entry: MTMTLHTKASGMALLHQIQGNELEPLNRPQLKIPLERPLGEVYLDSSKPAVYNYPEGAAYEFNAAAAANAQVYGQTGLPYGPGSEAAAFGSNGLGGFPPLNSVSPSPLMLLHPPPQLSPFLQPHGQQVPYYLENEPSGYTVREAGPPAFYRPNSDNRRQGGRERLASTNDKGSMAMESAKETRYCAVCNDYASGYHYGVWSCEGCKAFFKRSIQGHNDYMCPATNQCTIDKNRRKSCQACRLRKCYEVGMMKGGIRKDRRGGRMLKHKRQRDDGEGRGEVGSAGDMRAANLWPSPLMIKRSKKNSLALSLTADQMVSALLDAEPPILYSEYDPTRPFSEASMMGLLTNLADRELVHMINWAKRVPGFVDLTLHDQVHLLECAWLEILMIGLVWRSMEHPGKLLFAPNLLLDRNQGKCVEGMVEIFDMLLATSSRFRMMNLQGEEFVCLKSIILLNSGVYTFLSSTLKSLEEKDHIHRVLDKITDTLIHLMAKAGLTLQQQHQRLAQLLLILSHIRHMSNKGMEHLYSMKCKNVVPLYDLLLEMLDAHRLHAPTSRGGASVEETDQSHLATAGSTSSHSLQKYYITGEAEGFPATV
# Biological target: T1, estrogen receptor α (ERα) (Homo sapiens, UniProt P03372)
# T1 construct: endogenous in cells; host or cells: MCF-7
# Experiment: Western blot of ER protein expression (down-regulation)
# Assay type: cell-based
# Conditions: MCF-7 cells, FIG. 13
compound,measurement,value
"CC/C(=C(\c1ccc(O)cc1)c1ccc(/C=C/C(=O)O)cc1)c1ccccc1 [GW-7604, reference compound]",ER protein expression,dramatically downregulated
